High-throughput results deposited in PubChem BioAssay by National Center for Advancing Translational Sciences (NCATS).
miR-21 FLuc – miR-21 reporter, rising signal | HeLa miR-21 FLuc reporter, luciferase, 48 h | Potency, µM (top dose mostly 38.3 µM), inactives show at the top dose reporter change, positive = more light | 340,000 tested, under 10 active | AID 2288; active = well fitted rising curve with a large enough effect; inconclusive = small, poorly fitted or top-dose-only effect; inactive = no such curve, though single readings can be large or run the other way;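 further: % of control where 0% means no effect; miR-21 action dims this reporter so a rising signal means less miR-21 action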
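HeLa miR-21-FLuc reporter line, endogenous miR-21; 2000 cells/well in DMEM/10% FBS; compound titration up to ~40uM final, 48 h, 37 degree Celsius; luciferase detection reagent, 15 min lysis, CCD luminescence.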
A549 tox – A549 cytotoxicity, counter-screen for Nrf2 inhibitors; A549 ARE-Fluc cells, CellTiter-Fluor viability, 18-24 h; Potency, µM (top dose mostly 46 µM), for the others: at the highest dose activity change, negative = cytotoxicity, usual class: inhibitors; 390,000 compounds, 0.16% hits; AID 504648; also: potency is read from the fitted curve at half-maximal effect; % is scaled to controls: 0 for no effect and ±100 for the full control effect
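Cytotoxicity counterscreen: CellTiter-Fluor fluorescence was measured in A549 ARE_Fluc cells after 18-24 h of compound exposure in a concentration series. The subsequent BugLite luminescent read reports ARE-luciferase activity.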
TCR activator – activators of T cell receptors. 330,000 tested, under 10 active. Potency, µM (doses to about 9.22 µM), for the others: top-dose activation of IL-2 secretion, most hits filed as activators. primary human leukocytes, anti-CD3, IL-2 HTRF, 48 h. AID 504894; also: % of control where 0% means no effect
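Human primary leukocytes + a-CD3 beads + cpd, 48 hr; IL-2 in supernatant by HTRF (ex 320nm / em 665nm). No co-stimulatory signal supplied.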
ClpP mod – qHTS Assay for Activators of ClpP; purified B. subtilis ClpP, FRET peptide cleavage, 20 min; 340,000 compounds, 1.9% hits; AID 651965, 2013; Potency, µM (doses to about 57.5 µM), for the others: at the top dose activity change, negative = active; ATP-dependent Clp protease proteolytic subunit (Bacillus subtilis (strain 168)), P80244; active = well fitted falling curve with a large enough effect; inconclusive = small, poorly fitted or top-dose-only effect; inactive = no such curve, though single readings can be large or run the other way; also: potency is read from the fitted curve at half-maximal effect; the source files actives as falling curves though it sought activators and does not explain the sign; nearly all actives have a fitted effect of over 65% in size
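FRET quenching reversal measured ClpP activation: 10 microg/mL B. subtilis ClpP at pH 8 with the FRET-FV decapeptide, read at 430 nm after 320 nm excitation. The 20-min minus 0-min signal was scaled between DMSO/no-enzyme wells and ADEP (5.8 microM final).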
Nrf2 activator – Nrf2 pathway activation | AREc32 ARE-luciferase reporter (MCF7-derived line), luminescence, 24 h | Potency, µM (doses to about 46.1 µM), for inactives: at the highest dose activation, hits mostly activators | 410,000 compounds, 0.31% hits; also: potency is read from the fitted curve at half-maximal effect; % of control where 0% means no effect; nearly all actives have a fitted effect of over 65% in size
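Quantitative high-throughput format: AREc32 reporter cells, 1000 per well, received compound by pin transfer and were incubated 24 hr at 37 deg C, 5% CO2, before Steady-Glo luminescence detection.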
Nrf2 block – Nrf2 pathway inhibition | A549 ARE-Fluc reporter, luciferase luminescence, 18-24 h | Potency, µM (series often up to 46 µM), for inactives: at the top dose activity change, negative = inhibition, most hits filed as inhibitors | 360,000 compounds, 2.1% hits; also: potency is read from the fitted curve at half-maximal effect; % is scaled to controls: 0 for no effect and ±100 for the full control effect; nearly all actives have a fitted effect of over 60% in size
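Cells were seeded and rested 2 h, then exposed to compounds for 18-24 h. CellTiter-Fluor was read first as a viability measure. BugLite was added 15 min before the final luminescent read of ARE-luciferase activity in A549 cells.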
Active calls of the source: *; u = inconclusive; x = no result; [ ] = dose if it differs, or a comment. Only some compounds are listed: those with a hit (about 3.7% of all), similar ones and a draw of the others. Unless noted, calls follow the shape of the dose curve; as a rule, active = well fitted curve in the direction sought with a large enough effect; inconclusive = small, poorly fitted or top-dose-only effect, or another doubt; inactive = no such curve, though single readings can be large; an effect the other way counts as inactive or inconclusive.

1) CCOC(=O)CC1C(=O)NCCN1c1nc2ccc(C)cn2c(=O)c1/C=C1\SC(=S)N(CC(C)C)C1=O (centres undefined)
2) CCCN1C(=O)/C(=C/c2c(N3CCNC(=O)C3CC(=O)OCC)nc3c(C)cccn3c2=O)SC1=S (centres undefined)
3) Cc1ccc(C(=O)N(CCc2ccccc2)Cc2ccccc2)cc1S(=O)(=O)N1CCOCC1
4) CC1CN(S(=O)(=O)c2cc(C(=O)N(CCc3ccccc3)Cc3ccccc3)ccc2Cl)CC(C)O1 (centres undefined)
5) CCN(CC)C(=O)C1=C(C)Nc2nc3ccccc3n2C1c1ccc(Br)cc1 (centres undefined)
6) CCOC(=O)C1=C(C)Nc2nc3ccccc3n2C1c1ccccc1 (centres undefined)
assay / entry,1,2,3,4,5,6
miR-21 FLuc,-5%,4%,x,x,0%,0%
A549 tox,u,u,-4%,-12%,3%,0%
TCR activator,9%,-6%,-3%,-10%,x,0%
ClpP mod,x,-2%,-1%,-1%,-22%,35µM*
Nrf2 activator,0%,-1%,0%,0%,-1%,0%
Nrf2 block,u,21µM*,u,7.3µM*,-5%,-25%

7) C(=N\Nc1nc2ccccc2[nH]1)/c1ccccn1
8) C(=N\Nc1nc2ccccc2[nH]1)/c1ccc2c(c1)OCCO2
9) C(=N\Nc1ccc2ccccc2n1)/c1ccc2c(c1)OCCO2
10) S=C(N/N=C/c1ccc2ncccc2c1)Nc1ccccc1
11) C(=N\Nc1nc2ccccc2[nH]1)/c1ccc2ncccc2c1
12) COc1ccc(/C=N/Nc2nc3ccccc3[nH]2)cc1OC
assay / entry,7,8,9,10,11,12
miR-21 FLuc,u,20%,u,-35%,5%,-51%
A549 tox,u,u,-6%,3%,-7%,8%
TCR activator,3%,-4%,5%,2%,-20%,0%
ClpP mod,1%,-20%,4%,1%,x,-7%
Nrf2 activator,-4%,3%,-2%,0%,7%,9%
Nrf2 block,u,2.6µM*,u,13µM*,21µM*,23%

An excerpt of these results, with bars between the fields:
no. | SMILES | miR-21 FLuc | A549 tox | TCR activator | ClpP mod | Nrf2 activator | Nrf2 block
5 | CCN(CC)C(=O)C1=C(C)Nc2nc3ccccc3n2C1c1ccc(Br)cc1 (centres undefined) | 0% | 3% | x | -22% | -1% | -5%
9 | C(=N\Nc1ccc2ccccc2n1)/c1ccc2c(c1)OCCO2 | u | -6% | 5% | 4% | -2% | u

New compounds follow:
13) COc1cc(/C=N\Nc2nc3ccccc3[nH]2)cc(OC)c1OC
14) Cc1cc2c(cc1C)N[C@]1(C[C@H]3CCCC(=O)N4CC[C@@H](C1)[C@@H]34)C(=NC(C)(C)CC(C)(C)C)N2
15) CC1=C(C(=O)OC2CCCC2)C(c2ccccc2C(F)(F)F)CC(=O)N1 (centres undefined)
16) COc1cc(OC)c(OC)cc1/C=N/Nc1nc2ccccc2[nH]1
17) CCN(CC)c1ccc(/C=N/NC(=O)Cc2cccs2)c(O)c1
18) Fc1ccccc1-c1ccc(/C=N/Nc2nc3ccccc3[nH]2)o1
assay / entry,13,14,15,16,17,18
miR-21 FLuc,-2%,x,14%,-5%,5%,-19%
A549 tox,14%,-16%,2%,-4%,-9%,4%
TCR activator,-23%,1%,x,6%,-1%[46.1 µM],2%[46.1 µM]
ClpP mod,-7%,0%,-1%,-11%,28µM*,-29%
Nrf2 activator,-1%,5%,0%,-1%,0%,11µM*
Nrf2 block,5.8µM*,2%,-23%,1%,u,u

19) CCCCn1c(/C=N/Nc2nc3ccccc3[nH]2)nc2ccccc21
20) CCN(CC)c1ccc(/C=N/NC(=O)c2ccco2)c(O)c1
21) CCOc1cc(/C=N/Nc2nc3ccccc3[nH]2)cc(Br)c1OCC(=O)N(C)C
22) CCN(CC)c1ccc(/C=N/Nc2nc3ccccc3[nH]2)c(O)c1
23) COc1ccc(-c2ccc3c(c2)[C@@H]2C[C@H](N(C)C(=O)C(C)(C)C)[C@H]([C@H](C)O)C(=O)N2CC3)cc1
24) Cc1cn(CC(=O)NCCCn2ccnc2)c(=O)[nH]c1=O
assay / entry,19,20,21,22,23,24
miR-21 FLuc,0%,-34%,-2%,u,x,x
A549 tox,u,u,-11%,u,-3%,-6%
TCR activator,-6%[46.1 µM],1%,13%,-7%,-6%,12%
ClpP mod,-8%,-14%,0%,u,-5%,-1%
Nrf2 activator,0%,0%,0%,14%,6%,0%
Nrf2 block,u,1%,18µM*,26µM*,-1%,-9%
